Source: PubChem (ICCB-Longwood Screening Facility, Harvard Medical School)
HCMV UL50-53 inh – inhibitors of HCMV UL50-UL53 interaction, biochemical, HTRF; 190,000 compounds, 0.15% hits; AID 1918969, 2023; HCMV UL50-UL53 nuclear egress complex (human cytomegalovirus); inhibition, % (test concentration not listed); normalized percent inhibition; in the data active = inhibition above about 27%, passing the limit was not always enough
GIV Gai3 FP – inhibitors of GIV peptide binding to Galpha-i3, primary screen, biochemical, fluorescence polarization, FITC-GIV GBA peptide, rat Galphai3. Guanine nucleotide-binding protein G(i) subunit alpha-3 (Rattus norvegicus), P08753. 90 min; stronger effect = lower value; scaled: aluminum fluoride 0%, vehicle 100%. percent of control (FP), % (test concentration not listed). hit rate 0.42% among 210,000. AID 1224905, 2016;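 active = replicate mean at 85% of control or lower, very high polarization wells dropped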;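 note: wells of about 15 µL received 100 nL stock; the first replicate is given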
GIV Gai FP conf – inhibitors of GIV peptide binding to Galpha-i3, confirmation, biochemical, fluorescence polarization, FITC-GIV peptide, rat Galphai3; stronger effect = lower value; fluorescence polarization, mP at 100 µM; 580 compounds, 38% hits; shares compounds with GIV Gai3 FP;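 active = inhibition score of 15 or more, meaning 100 minus mean polarization as percent of control over three replicates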
GIV-Gai AS conf – inhibitors of GIV binding to Galpha-i3, confirmation, orthogonal assay for GIV-Galpha-i inhibitor project, biochemical, AlphaScreen, His-GIV, GST-Galphai3. shares compounds with GIV Gai3 FP. purified proteins, 90 min; stronger effect = lower value. AlphaScreen counts at 100 µM. 580 compounds, 39% hits. AID 1259351, 2017;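 active = inhibition score at or above a set limit, where the score is 100 minus the three-replicate mean percent of control signal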
Numbers without * were called inactive; x = no result given. Only a selection was taken, and hits are over-represented in it overall.

Sequences of proteins named here, by UniProt entry; tags and fusion partners are left off.
Guanine nucleotide-binding protein G(i) subunit alpha-3 (Rattus norvegicus), P08753, UniProt P08753, whole entry, looked up: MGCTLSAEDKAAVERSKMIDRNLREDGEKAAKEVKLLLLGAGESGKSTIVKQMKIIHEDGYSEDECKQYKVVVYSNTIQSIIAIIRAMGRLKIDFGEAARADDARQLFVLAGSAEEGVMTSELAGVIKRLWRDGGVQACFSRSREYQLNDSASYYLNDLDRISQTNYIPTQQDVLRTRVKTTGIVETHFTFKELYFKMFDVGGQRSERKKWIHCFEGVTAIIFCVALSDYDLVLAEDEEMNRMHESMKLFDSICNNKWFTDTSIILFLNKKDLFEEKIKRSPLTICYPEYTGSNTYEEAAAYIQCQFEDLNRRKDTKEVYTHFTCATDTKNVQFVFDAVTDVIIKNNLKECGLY

The opening 4 entries, to show the layout:
canonical_smiles,HCMV UL50-53 inh,GIV Gai3 FP,GIV Gai FP conf,GIV-Gai AS conf
CC1(C)CC2(CCCN(C(=S)Nc3ccccc3)C2)CCO1 (stereo not given),x,90,68,33599
CC1(C)CC2(CCCN(CCC(O)(c3ccccc3)c3ccccc3)C2)CCO1 (stereo not given),-2,x,x,x
Cc1oc2ccc(O)c(CN(C)Cc3ccccc3)c2c1C(=O)NCc1ccccc1,-12,102,x,x
Cc1cccc(N2C(=O)N(Cc3cc(=O)n4ccccc4n3)c3ccccc3S2(=O)=O)c1,x,102,x,x

Main list (from the top)
canonical_smiles,HCMV UL50-53 inh,GIV Gai3 FP,GIV Gai FP conf,GIV-Gai AS conf
CC1(C)CC2(CCCN(C(=S)Nc3ccccc3)C2)CCO1 (stereo not given),x,90,68,33599
CC1(C)CC2(CCCN(CCC(O)(c3ccccc3)c3ccccc3)C2)CCO1 (stereo not given),-2,x,x,x
Cc1oc2ccc(O)c(CN(C)Cc3ccccc3)c2c1C(=O)NCc1ccccc1,-12,102,x,x
Cc1cccc(N2C(=O)N(Cc3cc(=O)n4ccccc4n3)c3ccccc3S2(=O)=O)c1,x,102,x,x
CCc1ccccc1N1C(=O)N(Cc2cc(=O)n3ccccc3n2)c2ccccc2S1(=O)=O,x,87,82,31171
O=C1c2ccccc2C2(O)N(c3ccccc3)C(=S)N(c3ccccc3)C12O (stereo not given),x,110,x,x
COC(=O)c1cc(C(=O)Nc2ccc(C)cc2)c(=O)[nH]c1C,4,105,x,x
COC(=O)c1cc(C(=O)Nc2ccc(Cl)cc2)c(=O)[nH]c1C,-13,106,81,29055
CC(C)NC(=O)CSc1n[nH]c(-c2ccc(Br)cc2)n1,-14,x,x,x
CC(COc1ccc2c(c1)OCO2)NC(=O)Cc1n[nH]c(=O)c2ccccc12 (stereo not given),-1,99,x,x
O=C(Cn1cnc2ccccc2c1=O)OCCN(C1=NS(=O)(=O)c2ccccc21)c1ccccc1,x,109,x,x
CNC(=O)NC(=O)CN1CCCc2cc(C)ccc21,-29,x,x,x
CC(C)N1CCCc2cc(CN)ccc21,26,x,x,x
CCCN1CCCc2cc(CN)ccc21,-13,65*,51*,9116*
CCN1CCCc2cc(O)ccc21,-5,-9.7*,8.3*,5580*
C=CCNCC1OCc2ccccc2CO1,-12,103,x,x
Cc1ccc(C)n1-c1ccsc1C(=O)O,-20,65*,11*,1766*
Cc1cc(=O)cc(C)n1-c1ccccc1O,-3,x,x,x
Cc1ccc(C)n1-c1ccsc1C(=O)CC#N,-15,97,x,x
Cc1cc(C)n(-c2cc(C(=O)O)ccc2C)n1,21,100,x,x
Cc1ccc(C)n1-c1ccc(C(=O)O)cc1O,56*,31*,50*,3903*
Cc1ccc(C(=O)O)cc1-n1c(C)ccc1C,-3,67*,54*,3689*
CCOC(=O)c1ccc2nc(-c3ccc(F)cc3)cc(OCC(=O)Nc3ccc(OC)cc3)c2c1,-32,107,x,x
CCCn1c(=O)n(-c2ccccc2)c(=O)c2c3c(sc21)CN(C(C)=O)CC3,-28,101,x,x
CC(=O)Nc1ccc(NC(=O)c2oc3c(c2C)-c2nn(Cc4ccccc4Cl)cc2CC3)cc1,0,99,x,x
CCn1cc2c(n1)-c1c(oc(C(=O)NCc3cccnc3)c1C)CC2,x,83*,53,10636*
CCOCCCNC(=O)Cn1cc2c(n1)-c1c(oc(C(=O)N3CCCC3)c1C)CC2,x,97,x,x
Cc1cccc(CNC(=O)c2oc3c(c2C)-c2nn(Cc4cccc(Cl)c4)cc2CC3)c1,8,101,x,x
CCn1cc2c(n1)-c1c(oc(C(=O)Nc3ccc(Cl)cc3)c1C)CC2,x,81*,54,16212*
COCCNC(=O)Cn1cc2c(n1)-c1c(oc(C(=O)N3CCCC3)c1C)CC2,x,70*,66*,26569
O=C(O)CCC/C=C\C[C@@H]1[C@@H](/C=C/[C@H](O)CCc2ccccc2)[C@H](O)C[C@@H]1O,-20,x,x,x
Cn1cnc2cc(-c3noc(-c4ccc(Br)o4)n3)ccc21,x,109,x,x
CC1=NN(c2ccccc2)C(=O)C1(O)C1C(=O)c2ccccc2C1=O (stereo not given),36,74*,56*,4583*
CC1=NN(c2ccccc2)C(=O)C1(C)N (stereo not given),-2,104,x,x
O=C(O)c1cccc(NC(=O)c2cccc(S(=O)(=O)Nc3cccc(C(=O)O)c3)c2)c1,x,95,x,x
O=C(Nc1cccc(C(=O)Nc2ccc(S(=O)(=O)O)c3cc(S(=O)(=O)O)cc(S(=O)(=O)O)c23)c1)Nc1cccc(C(=O)Nc2ccc(S(=O)(=O)O)c3cc(S(=O)(=O)O)cc(S(=O)(=O)O)c23)c1,-42,0.1*,33*,3059*
CCCOC(=O)c1ccc(NC=O)cc1,7,105,x,x
CSc1ccc(CNCCSc2nnnn2C)cc1,-10,101,x,x
CCOC(=O)C1=C(C)N=c2s/c(=C\c3cc([N+](=O)[O-])ccc3N3CCOCC3)c(=O)n2C1c1ccc(F)cc1 (stereo not given),-18,74*,64,55281
